From ChEMBL document CHEMBL5352458, “Novel slow-binding reversible acetylcholinesterase inhibitors based on uracil moieties for possible treatment of myasthenia gravis and protection from organophosphate poisoning” (2023) come the findings set out here.

Amino acid sequences for entries named in this document (tags omitted). Residues count along the entry.
UniProt P06276, 29-602 limits assumed: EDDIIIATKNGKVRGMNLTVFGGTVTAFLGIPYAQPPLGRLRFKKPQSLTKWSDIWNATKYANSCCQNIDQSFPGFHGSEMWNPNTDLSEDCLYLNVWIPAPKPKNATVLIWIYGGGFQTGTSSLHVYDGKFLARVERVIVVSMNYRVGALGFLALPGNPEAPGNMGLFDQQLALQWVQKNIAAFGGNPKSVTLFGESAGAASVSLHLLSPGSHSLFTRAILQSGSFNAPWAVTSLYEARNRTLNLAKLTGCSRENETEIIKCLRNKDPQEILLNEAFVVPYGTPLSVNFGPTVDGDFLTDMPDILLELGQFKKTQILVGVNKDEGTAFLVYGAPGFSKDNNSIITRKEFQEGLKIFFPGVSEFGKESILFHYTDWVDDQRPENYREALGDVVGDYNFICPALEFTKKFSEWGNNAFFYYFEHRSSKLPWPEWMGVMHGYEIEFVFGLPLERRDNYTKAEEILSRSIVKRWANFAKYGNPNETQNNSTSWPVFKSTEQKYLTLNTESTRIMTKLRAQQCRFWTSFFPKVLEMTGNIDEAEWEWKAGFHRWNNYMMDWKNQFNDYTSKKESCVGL
UniProt P22303, 32-614 limits assumed: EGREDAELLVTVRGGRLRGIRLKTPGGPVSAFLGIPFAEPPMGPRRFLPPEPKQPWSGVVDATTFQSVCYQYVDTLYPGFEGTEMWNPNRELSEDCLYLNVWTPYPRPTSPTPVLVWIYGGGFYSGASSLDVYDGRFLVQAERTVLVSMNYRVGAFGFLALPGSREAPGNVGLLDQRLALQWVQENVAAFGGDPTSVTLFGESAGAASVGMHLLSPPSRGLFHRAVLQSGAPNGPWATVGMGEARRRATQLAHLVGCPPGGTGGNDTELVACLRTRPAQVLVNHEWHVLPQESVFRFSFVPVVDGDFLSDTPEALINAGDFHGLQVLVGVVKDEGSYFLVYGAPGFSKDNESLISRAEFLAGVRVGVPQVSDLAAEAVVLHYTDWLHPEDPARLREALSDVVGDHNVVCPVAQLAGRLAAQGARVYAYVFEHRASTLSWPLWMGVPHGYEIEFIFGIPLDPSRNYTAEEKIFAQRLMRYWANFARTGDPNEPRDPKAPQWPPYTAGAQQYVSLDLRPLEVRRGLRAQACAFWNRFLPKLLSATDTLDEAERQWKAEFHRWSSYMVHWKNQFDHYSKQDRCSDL

Data set [1] deals with T1, Cholinesterase (Homo sapiens, UniProt P06276). Briefly: Inhibition of human BChE using butyrylthiocholine as substrate preincubated for 5 mins followed by substrate addition and measured after 2 mins by Perkin elmer based spectrophotometer analysis.
The target of data set [2] is T2, Acetylcholinesterase (Homo sapiens, UniProt P22303). Briefly: Inhibition of human AChE using acetylthiocholine as substrate preincubated for 5 mins followed by substrate addition and measured after 2 mins by Perkin elmer based spectrophotometer analysis.
Data set [3] can be described thus: Acute toxicity in ip dosed mouse. The following applies: in vivo.
Data set [4] has as its system Rattus norvegicus. Briefly: Anti-experimental autoimmune myasthenia gravis activity in Wistar rat assessed as increase in force of urinary bladder contraction at 0.1 mg/kg, ip measured for 15 mins by electromyogram analysis. The following applies: 0.25 h.
Data set [5] concerns the target T1, Cholinesterase. Kind of data set: Mixed competitive inhibition of human BChE assessed as inhibition of constant by Dixon plot analysis.
Data set [6] deals with T2, Acetylcholinesterase. Kind of data set: Mixed competitive inhibition of human AChE assessed as inhibition of constant by Dixon plot analysis.
For data set [7], the target named is T2, Acetylcholinesterase. Briefly: Mixed uncompetitive inhibition of human AChE assessed as inhibition of constant by cornish-bowden plot analysis.
For data set [8], the target named is T1, Cholinesterase. Kind of data set: Inhibition of human plasma BChE.
Data set [9] has as its target T2, Acetylcholinesterase. Briefly: Inhibition of AChE in human Erythrocyte.
Data set [10] deals with Rattus norvegicus. Briefly: Anti-experimental autoimmune myasthenia gravis activity in Wistar rat assessed as increase in amplitude decrement of action potential at 0.005 to 0.01 mg/kg, ip measured at 15 to 240 mins by electromyogram analysis. The following applies: dose 0.005-0.01 mg/kg, time 15-240 min.

Structures are written as SMILES. pIC50, pKi: −log10 of the molar value.

Regarding `CC[N+](CC)(CCCCCn1c(=O)cc(C)n(CCCCCn2c(C)cc(=O)n(C)c2=O)c1=O)Cc1ccccc1C(F)(F)F`, the values for the pIC50 against Cholinesterase [1] and at Acetylcholinesterase [2] were 4.22 and 9.30, respectively.
Take `CN(C)C(=O)Oc1ccc[n+](C)c1.[Br-]`: the LD50 – broadly, the dose at which mortality reaches 50% – in [3] is 2.7 mg/kg. For the same molecule, the Activity in the data set with Rattus norvegicus [4] turned out to be 221%.
`CC[N+](CC)(CCCCCn1c(=O)cc(C)n(CCCCCn2c(C)cc(=O)n(C)c2=O)c1=O)Cc1ccccc1[N+](=O)[O-]`: the pIC50 (usually the negative decadic logarithm of the IC50, by convention in mol/L) is 4.40 on Cholinesterase [1] and 9.40 against Acetylcholinesterase [2].
At Acetylcholinesterase [2], `CC[N+](CC)(CCCCCn1c(=O)cc(C)n(CCCCn2c(C)cc(=O)n(C)c2=O)c1=O)Cc1ccccc1C(F)(F)F` gave a pIC50 of 9.00.
As to `CC[N+](CC)(CCCCCn1c(=O)cc(C)n(CCCCn2c(C)cc(=O)n(C)c2=O)c1=O)Cc1ccccc1C(F)(F)F.[Br-]`, the LD50 in data set [3] stood at 1.9 mg/kg.
The molecule `Br.CC[N+](CC)(CCCCCn1c(=O)cc(C)n(CCCCCCn2c(C)cc(=O)n(C)c2=O)c1=O)Cc1ccccc1[N+](=O)[O-]` yielded an LD50 in data set [3] of 5.5 mg/kg.
Consider `CC[N+](CC)(CCCCCn1c(=O)cc(C)n(CCCCn2c(C)cc(=O)n(C)c2=O)c1=O)Cc1ccccc1[N+](=O)[O-]`, for which the pIC50 was 4.60 against Cholinesterase [1] and 9.22 against Acetylcholinesterase [2].
`Br.CC[N+](CC)(CCCCCn1c(=O)cc(C)n(CCCn2c(C)cc(=O)n(C)c2=O)c1=O)Cc1ccccc1[N+](=O)[O-]` yielded an LD50 in [3] of 1.1 mg/kg.
Regarding `Br.CC[N+](CC)(CCCCCn1c(=O)cc(C)n(CCCCn2c(C)cc(=O)n(C)c2=O)c1=O)Cc1ccccc1[N+](=O)[O-]`, in [3], the LD50 was 1.4 mg/kg.
Turning to `CC[N+](CC)(CCCCCn1c(=O)cc(C)n(CCCn2c(C)cc(=O)n(C)c2=O)c1=O)Cc1ccccc1C(F)(F)F`, at Acetylcholinesterase [2], the pIC50 is 8.70.
In data set [3], `Br.CC[N+](CC)(CCCCCn1c(=O)cc(C)n(CCCCCn2c(C)cc(=O)n(C)c2=O)c1=O)Cc1ccccc1[N+](=O)[O-]` registered an LD50 of 1.7 mg/kg.
As to `CC[N+](CC)(CCCCCn1c(=O)cc(C)n(CCCCCCn2c(C)cc(=O)n(C)c2=O)c1=O)Cc1ccccc1[N+](=O)[O-]`, the negative logarithm of the IC50 (pIC50) on Cholinesterase [1] is 5.22; against Acetylcholinesterase [2], 10.00.
Regarding `CC[N+](CC)(CCCCCn1c(=O)cc(C)n(CCCCCCn2c(C)cc(=O)n(C)c2=O)c1=O)Cc1ccccc1C(F)(F)F`, the negative logarithm of the IC50 (pIC50) on Cholinesterase [1] was 4.40; against Acetylcholinesterase [2], 9.70. In addition, the pKi (commonly the Ki on a negative log10 scale, so that one unit is a factor of ten) was 4.46 on Cholinesterase [5], 9.82 at Acetylcholinesterase [6] and 9.37 at Acetylcholinesterase [7].
Turning to `CC[N+](CC)(CCCCCn1c(C)cc(=O)n(CCCCC[N+](CC)(CC)Cc2ccccc2)c1=O)Cc1ccccc1.[Br-].[Br-]`, the LD50 in [3] turned out to be 1 mg/kg.
For `CC[N+](CC)(CCCCCn1c(C)cc(=O)n(CCCCC[N+](CC)(CC)Cc2ccccc2)c1=O)Cc1ccccc1`, the pIC50 against Cholinesterase [8] was 5.00; at Acetylcholinesterase [9], 9.85.
For the molecule `CC[N+](CC)(CCCCCn1c(=O)cc(C)n(CCCn2c(C)cc(=O)n(C)c2=O)c1=O)Cc1ccccc1[N+](=O)[O-]`, the results for the pIC50 against Cholinesterase [1] and on Acetylcholinesterase [2] were 5.40 and 8.15, respectively.
Molecule `CC[N+](CC)(CCCCCn1c(=O)cc(C)n(CCCn2c(C)cc(=O)n(C)c2=O)c1=O)Cc1ccccc1C(F)(F)F.[Br-]` yielded an LD50 in data set [3] of 15.1 mg/kg.
As to `CC[N+](CC)(CCCCCn1c(=O)cc(C)n(CCCCCn2c(C)cc(=O)n(C)c2=O)c1=O)Cc1ccccc1C(F)(F)F.[Br-]`, the LD50 in data set [3] is 4.5 mg/kg.
`CC[N+](CC)(CCCCCn1c(=O)cc(C)n(CCCCCCn2c(C)cc(=O)n(C)c2=O)c1=O)Cc1ccccc1C(F)(F)F.[Br-]` had an LD50 in [3] of 10 mg/kg. In the data set on Rattus norvegicus [10], the Activity worked out at 15.7%.
